From patent publication US12558424B2, “T cells having enhanced anti-tumor activity” (The United States of America, as represented by the …, priority 2019, dated 2026)

Columns and labels:
[1] = system: murine splenic CD8+ T cells; test: LC-MS metabolomics of intracellular metabolites; type: cell-based, mouse
Experimental: (§1) Except where otherwise specified, all experiments were performed with murine splenic CD8+ T cells isolated with STEMCELL Technologies EasySep™ Mouse CD8+ T Cell Isolation Kit (catalog #19853). Following isolation, cells were resuspended at 1×10^6 cells/ml in T cell culture medium: RPMI 1640 medium (Thermo 11875093) containing 10% fetal bovine serum (FBS), 1× Glutamax (Life Technologies #35050-061), 1 mM sodium pyruvate, 0.1% β-mercaptoethanol, and penicillin/streptomycin. Cells were plated in 24-well tissue culture plates precoated with mouse anti-CD3 (2 μg/ml) and cultured with soluble mouse anti-CD28 (2 μg/ml) for 48 h. After incubation, cells were pooled, washed twice in media, and re-plated at 1×10^6 cells/ml. Cells were stimulated without cytokine or with 100 IU/ml human IL-2 or 100 ng/ml mouse IL-21. Unless otherwise specified, cells were stimulated for 48 h before being harvested. Where noted, cells were treated (1 μM) with a novel, pyrazole-based LDH inhibitor (NCI-737, herein denoted as NCI-737) that was developed under the auspices of the NCI Experimental Therapeutics Program 29. NCI-737 was added at the time of anti-CD3+ anti-CD28 treatment and replenished after cells were washed and replated in either IL-2 or IL-21, as indicated.
CD8+ T cells were isolated from 6-week old C57BL/6 mouse spleens (StemCell #19853), activated for 48 h with anti-CD3+anti-CD28, washed, and replated for 48 h in medium alone or medium supplemented with human IL-2 or mouse IL-21. Cells were then washed with media supplemented with dialyzed fetal bovine serum (“FBS”) (Thermo-Fischer #A3382001), replated in RPMI 1640 medium containing 10% dialyzed FBS, 1× Glutamax (ThermoFisher #35050061), 1 mM sodium pyruvate, 0.1% β-mercaptoethanol, and penicillin-streptomycin, and re-stimulated with same cytokine treatment for 5 h. […] Cell extracts were analyzed using a quadrupole-orbitrap mass spectrometer (Q Exactive, Thermo Fisher Scientific, San Jose, CA) coupled to hydrophilic interaction chromatography via electrospray ionization. […] Data were analyzed using EL-MAVEN software. […]

mouse CD8+ T cells = test: Seahorse mitochondrial stress test (OCR, ECAR, SRC), mouse CD8+ T cells; type: cell-based
Experimental: as §1
(§2) The oxygen consumption rates (OCR) and extracellular acidification rates (ECAR) were recorded using a Seahorse XFe96 Analyzer (Agilent). Cells were washed and resuspended in Agilent XF Assay Medium supplemented with 25 mM glucose, 1 mM sodium pyruvate, and 2 mM L-Glutamine. Cells were plated on Seahorse Assay plates at 0.2×10^6 cells/well and during the assay were exposed to 1 μM oligomycin, 1.5 μM trifluoromethoxy carbonylcyanide phenylhydrazone (“FCCP”), 100 nM rotenone, and 1 μM antimycin A, as indicated.

human CD8+ T cells = test: Seahorse mitochondrial stress test (OCR, ECAR, SRC), human CD8+ T cells; type: cell-based
Experimental: as §2

[2] = system: murine splenic CD8+ T cells; test: RNA-Seq gene expression; type: cell-based, mouse; settings: vs no cytokine
Experimental: as §1, with “Unless otherwise specified, cells were stimulated for 48 h before being harvested. Where noted, cells were treated (1 μM) with a novel, pyrazole-based LDH inhibitor (NCI-737, herein denoted as NCI-737) that was developed under the auspices of the NCI Experimental Therapeutics Program 29. NCI-737 was added at the time of anti-CD3+ anti-CD28 treatment and replenished after cells were washed and replated in either IL-2 or IL-21, as indicated.” left out
Total RNA was extracted using an RNA miniprep kit (Zymo Research), and 500 ng RNA was used for library preparation. […] After quantification by Qubit (Invitrogen), barcoded samples were mixed and sequenced on an Illumina HiSeq3000 platform. Sequenced reads (50 bp, single end) were obtained with the Illumina CASAVA pipeline and mapped to the mouse genome mm10 (GRCm38, December 2011) using Bowtie 2.2.649 and Tophat 2.2.149. Only uniquely mapped reads were retained. Raw counts that fell on exons were calculated and normalized by using RPKM (Reads Per Kilobase per Million mapped reads). […]

pmel-1 CD8+ T cells = test: Flow cytometry of pmel-1 CD8+ T cell differentiation (CD44, CD62L, Sca-1); type: cell-based, mouse; settings: pmel-1 CD8+ T cells activated with anti-CD3+anti-CD28
B16 melanoma (B16KVP) = test: Mouse tumor model and adoptive transfer; type: in vivo; settings: cells cultured with cytokine alone
[3] = system: murine splenic CD8+ T cells; test: Electron microscopy of mitochondrial morphology; type: cell-based, mouse; settings: 48 h culture after anti-CD3+anti-CD28 activation
Experimental: as §1, with “indicated. […]” for “indicated.”

[4] = system: murine splenic CD8+ T cells; test: Cellular expansion, CFSE dilution and viability; type: cell-based, mouse; settings: 48 h treatment; vs no cytokine
Experimental: as §1, with “Where noted, cells were treated (1 μM) with a novel, pyrazole-based LDH inhibitor (NCI-737, herein denoted as NCI-737) that was developed under the auspices of the NCI Experimental Therapeutics Program 29. NCI-737 was added at the time of anti-CD3+ anti-CD28 treatment and replenished after cells were washed and replated in either IL-2 or IL-21, as indicated.” left out
Live cells were stained in FACS buffer containing 0.5% BSA and 0.02% sodium azide in PBS. […] After staining, cells were washed and analyzed on a BD LSRFortessa™ X-20 cytometer. For glucose uptake experiments, cultured cells were starved for 7 h in glucose-free media, then treated with a fluorescently-labeled glucose derivative (Cayman #600471) for 10 min, and assessed using a flow cytometer. […]

[5] = system: murine splenic CD8+ T cells; test: Glucose uptake by flow cytometry (fluorescently-labeled glucose derivative); type: cell-based, mouse; settings: vs cells treated with NC or IL-21
Experimental: Live cells were stained in FACS buffer containing 0.5% BSA and 0.02% sodium azide in PBS. Cells were stained at 4° C. for 30 min in darkness with anti-CD8 (53-6.7, BioLegend), anti-CD62L (MEL-14, BioLegend), anti-CD44 (IM7, BD Pharmingen), anti-Sca-1 (D7, Biolegend), and Live/Dead aqua (Invitrogen). After staining, cells were washed and analyzed on a BD LSRFortessa™ X-20 cytometer. For glucose uptake experiments, cultured cells were starved for 7 h in glucose-free media, then treated with a fluorescently-labeled glucose derivative (Cayman #600471) for 10 min, and assessed using a flow cytometer. All analyses were done using FlowJo software (TreeStar).

[6] = system: murine splenic CD8+ T cells; test: Western blotting of LDHA and phosphorylated PDH; type: cell-based, mouse
Experimental: After 3 days of stimulation with medium, IL-2, or IL-21, cells were pelleted at 1500 rpm for 5 min, washed with ice cold PBS, resuspended in radioimmunoprecipitation assay buffer, and frozen on dry ice. Frozen lysates were thawed on ice, cell debris was removed by centrifuging at 13,000 rpm for 15 min at 4° C., and supernatant was collected. Protein was quantified using the DCTM Protein Assay Kit (Bio-Rad #5000111) and 20 μg of supernatant protein was loaded into the wells of a NuPAGE™ 4-12% Bis-Tris Gel (Invitrogen #NP0335BOX) and electrophoresed at 100 V in NuPAGE MOPS SDS Running Buffer (Life Technologies #1908733). Proteins were transferred onto a 0.45 μm polyvinylidene difluoride membrane using an XCell II™ Blot Module (Invitrogen #EI9051) run at 30 V for 1 h in NuPAGE Transfer Buffer (Life Technologies #1904537). Following transfer, membranes were blocked by shaking for 1 h at room temperature with 5% non-fat dry milk in TBS. Blots were probed overnight at 4° C. with primary antibodies dissolved in 5% non-fat dry milk in TBS+0.1% Tween 20 (TBSt). The primary antibodies used were as follows: anti-human or anti-mouse recombinant LDHA purified sheep IgG (R & D Systems #AF7304), anti-pyruvate dehydrogenase E1-alpha subunit (phospho S293) rabbit polyclonal antibody (Abcam #ab92696), and anti-β-actin mouse monoclonal antibody clone AC-15 (Sigma #A1978). […]

IL-2: cytokine; 100 IU/ml human IL-2 used to culture CD8+ T cells
intracellular glucose (LC-MS) ([1]; among NC, IL-2, IL-21): lowest intracellular glucose | lactate level ([1]; cytokine alone): high levels | pyruvate level ([1]; cytokine alone): high levels | mitochondrial spare respiratory capacity (SRC) (mouse CD8+ T cells; cytokine 48 h): minimal | basal oxygen consumption rate (OCR) (mouse CD8+ T cells; cytokine 48 h, IL-2 vs IL-21): higher | extracellular acidification rate (ECAR) (mouse CD8+ T cells; cytokine 48 h, IL-2 vs IL-21): higher | OCR at time point zero (mouse CD8+ T cells; cytokine stimulation 4 h): roughly equal | OCR value at time 0 (mouse CD8+ T cells; cytokine stimulation 12 h): approximately 250 pmol/min | OCR value at time 0 (mouse CD8+ T cells; cytokine stimulation 24 h): above 200 pmol/min | OCR value at time 0 (mouse CD8+ T cells; cytokine stimulation 48 h): above 100 pmol/min | OCR value upon injection with FCCP (mouse CD8+ T cells; rank among IL-2, IL-2+NCI-737, IL-21, IL-21+NCI-737): lowest OCR values | ECAR (human CD8+ T cells; IL-2 compared to IL-21): higher | OCR (human CD8+ T cells; IL-2 compared to IL-21): higher | OCR value at time 0 (human CD8+ T cells; rank among no cytokine, IL-21, IL-2): highest OCR value | expression of key glycolytic genes (Slc2a1, Pgk1, Pfkm, Ldha) [2]: induced expression of key glycolytic genes | differentiation of CD44hiCD62Llo effector memory cells (pmel-1 CD8+ T cells): more potent than IL-21 | antitumor effect of adoptively transferred pmel-1 CD8+ T cells (B16 melanoma (B16KVP)): conferred therapeutic advantage | mitochondrial morphology [3]: large dysmorphic mitochondria with loosely structured cristae | proliferation (fold-expansion, CFSE dilution) [4]: even greater expansion | viability [4]: markedly higher viability | glucose uptake capacity [5]: higher glucose uptake capacity | LDHA protein ([6]; IL-2 vs IL-21-treated cells): higher LDHA than IL-21-treated cells | inactive, phosphorylated form of PDH ([6]; IL-2 vs IL-21 and NC-treated cells): higher
